Legend:
FcRn [1] = biological target: FcRn (UniProt P55899)
FcRn [2] = biological target: FcRn (UniProt P55899); assay: BLI; Octet (ForteBio, Sartorius); pH 6.0; 1:1 global curve fitting
FcRn [3] = biological target: FcRn (UniProt P55899); assay: BLI; binding of KVA12.1 and KVA12123 to FcRn at pH 6.0 (Table S5; set-up not shown)
FcRn [4] = biological target: FcRn (UniProt P55899); assay: AlphaScreen or HTRF; AlphaLISA Fc receptor competition binding kit for FcRn, AlphaLISA MES buffer, pH 6.0; antibody titrated

By UniProt entry, the sequences of proteins in these tests, tags left out.
UniProt P55899, whole entry, looked up, tested part not stated: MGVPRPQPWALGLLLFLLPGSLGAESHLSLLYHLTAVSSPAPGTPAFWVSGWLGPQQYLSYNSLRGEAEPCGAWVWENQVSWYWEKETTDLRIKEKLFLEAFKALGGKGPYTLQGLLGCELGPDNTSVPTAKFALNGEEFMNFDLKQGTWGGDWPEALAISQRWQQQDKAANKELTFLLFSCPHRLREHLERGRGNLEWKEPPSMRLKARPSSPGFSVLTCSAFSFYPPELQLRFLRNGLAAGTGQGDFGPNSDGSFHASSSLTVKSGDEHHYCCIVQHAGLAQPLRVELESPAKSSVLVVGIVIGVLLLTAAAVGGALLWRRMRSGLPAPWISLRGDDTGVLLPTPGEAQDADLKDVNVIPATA

Q: How did the initial serum half-life in female cynomolgus monkeys after a single i.v. dose of 30 or 100 mg/kg (FcRn of the animal) (FcRn [1]) turn out when KVA12.1 (WT, hIgG1) (antibody) was run?
A: 103 h

Q: And the Kd (FcRn [2])?
A: 760 nM

Q: What about the koff (FcRn [2]) of the same substance?
A: 0.037 s⁻¹

Q: What about the kon (FcRn [2]) of the same substance?
A: 47000 M⁻¹ s⁻¹

Q: Which initial serum half-life in female cynomolgus monkeys after a single i.v. dose of 30 or 100 mg/kg (FcRn of the animal) (FcRn [1]) does the source give for KVA12123 (YTE, hIgG1) (antibody) here?
A: 165 h

Q: And the fold higher affinity than KVA12.1 (FcRn [3])?
A: 9 fold

Q: And the Kd (FcRn [2])?
A: 84 nM

Q: And the koff (FcRn [2])?
A: 0.019 s⁻¹

Q: What about the kon (FcRn [2]) of the same substance?
A: 230000 M⁻¹ s⁻¹

Q: And the fold stronger binding than KVA12.1 (FcRn [4])?
A: > 5 fold

Reference: article PMC10751915
